In PubChem BioAssay AID1508623 (National Center for Advancing Translational Sciences (NCATS), 2021):
The list shows a part of the results, in another mix than the full data. Records with an inconclusive call do not appear. Active and inactive are the calls of the source. Calls follow the shape of the dose curve; as a rule, active = well fitted inhibition curve with a large enough effect; inconclusive = small, poorly fitted or top-dose-only effect; inactive = no such curve, though single readings can be large or run the other way.

assay: Primary qHTS for Identification of Small Molecule Inhibitors of Huntingtin Promoter Activity; details: HEK293 HTT promoter firefly luciferase reporter (activity 0% = vehicle and -100% = no light), 24 h; at 57.5 µM (top of the series) unless noted; also: nearly all actives have a fitted effect of over 50% in size
Excerpt: Assay Provider: Russell L. Margolis M.D.
Department Neurology, Johns Hopkins University School of Medicine, Baltimore, MD
Huntington's Disease (HD) is a neurodegenerative disorder caused by a CAG repeat expansion in exon 1 of huntingtin (HTT). While there are currently no disease-modifying treatments for HD, recent efforts have focused on development of nucleotide-based therapeutics to lower HTT expression. As an alternative to siRNA or oligonucleotide methods, we hypothesized that suppression of HTT expression might be accomplished by small molecules that either (1) directly decrease HTT expression by suppressing HTT promoter activity or (2) indirectly decrease HTT expression by increasing the promoter activity of HTT-AS, the gene antisense to HTT that appears to inhibit expression of HTT.
We developed and employed a high throughput screen for modifiers of HTT and HTT-AS promoter activity using luminescent reporter HEK293 cells; of the 52,041 compounds tested, we identified 898 replicable hits. We used a rigorous stepwise approach to assess compound toxicity and the capacity of the compounds to specifically lower huntingtin protein in 5 different cell lines, including HEK293 cells, HD lymphoblastoid cells, mouse primary neurons, HD iPSCs differentiated into cortical-like neurons, and HD hESCs. We found no compounds which were able to lower huntingtin without lowering cell viability in all assays, though the potential efficacy of a few compounds at non-toxic doses could not be excluded.
SEQUENCE No. (1, 2, 3, etc.); […] (e.g., Cells, Incubation, Reagent, etc.); VALUE and DESCRIPTION.
1; Reagent; 4 uL; 2,500 Hek293 luciferase reporter cells per wells
3; Compound; 23 nL; Control inhibitor / compound library
5; Reagent; 2.5 uL; Firefly Luc reagent; Dual-Glo Luciferase Reporter Assay System (Promega)
6; Time; 10 min; room temperature incubation
7; Detection; Luminescence; FLuc
NOTES (numbers refer to sequence above)
1; High-throughput screening, measuring luminescence from a Hek293 luciferase reporter, was performed in 1,536 well white-walled tissue-culture treated plates. 2,500 cells were plated in 4 µL of Opti-MEM per well using a Multidrop Combi Reagent Dispenser (ThermoFisher).
2; Assay plates were cultured for 24 hours.
3; Control inhibitor (PTC124; final concentration of 50 uM) and compound library (at final concentrations of 460 nM - 57.5 uM) were added to the assay plate using the Kalypsis Pintool Robotic System equipped with 1536 pinheads.
4; Cells were then incubated for 24 hours at 37 degrees C prior to luminescence measurements.
5; In all cases, luminescence was measured using the Dual-Glo Luciferase Reporter Assay System (Promega) following the manufacturer's instructions.
6; Room temperature incubation.
7; Luminescence signal was obtained using the PerkinElmer ViewLux plate reader. Results were normalized to vehicle control (0% activity) and zero RLU (-100% activity).

**Q.** Which activity change, negative = inhibition does the source give for `O=[N+]([O-])c1cccc([N+](=O)[O-])c1` here?
**A.** The activity change, negative = inhibition was inactive: 17.6% [at 116 µM].

**Q.** With `CCOP(=O)(CC)Oc1ccc([N+](=O)[O-])cc1` (stereo not given) as the compound, how does the activity change, negative = inhibition read?
**A.** Its activity change, negative = inhibition is inactive: -8.22%.

**Q.** Which activity change, negative = inhibition does the source give for `Cc1cccc([N+](=O)[O-])c1[N+](=O)[O-]` here?
**A.** Its activity change, negative = inhibition is inactive: -2.37% [at 116 µM].

**Q.** Which activity change, negative = inhibition does the source give for `C/C1=C2N=C(/C=C3N=C(/C(C)=C4\[N-][C@@](C)([C@@H]5N=C1[C@](C)(CCC(=O)NC[C@@H](C)OP(=O)([O-])O[C@H]1[C@@H](O)[C@@H](n6cnc7cc(C)c(C)cc76)O[C@@H]1CO)[C@H]5CC(N)=O)[C@@](C)(CC(N)=O)[C@@H]4CCC(N)=O)[C@@](C)(CC(N)=O)[C@@H]\3CCC(N)=O)C(C)(C)[C@@H]/2CCC(N)=O.[C-]#N.[Co+3]` here?
**A.** Its activity change, negative = inhibition is inactive: -28.8%.

**Q.** Which activity change, negative = inhibition does the source give for `OCCSCCO` here?
**A.** Its activity change, negative = inhibition is inactive: 4.17%.
